Columns and labels:
Assay type in all cases: cell-based
[1] = target: Delta-type opioid receptor (Homo sapiens, UniProt P41143); assay: Displacement of [3H]DADLE from human delta opioid receptor expressed in CHO cells by liquid scintillation counting
Mu-type opioid receptor = Mu-type opioid receptor (Homo sapiens, UniProt P35372); assay: Displacement of [3H]DAMGO from human mu opioid receptor expressed in CHO cells by liquid scintillation counting
[2] = target: Kappa-type opioid receptor (Homo sapiens, UniProt P41145); assay: Displacement of [3H]U69,593 from human kappa opioid receptor expressed in CHO cells by liquid scintillation counting

By UniProt entry, the sequences of proteins in these tests, tags left out. Where a name states a change or a piece, a line headed by the entry shows the natural chain unless it says otherwise.
UniProt P41143, whole entry: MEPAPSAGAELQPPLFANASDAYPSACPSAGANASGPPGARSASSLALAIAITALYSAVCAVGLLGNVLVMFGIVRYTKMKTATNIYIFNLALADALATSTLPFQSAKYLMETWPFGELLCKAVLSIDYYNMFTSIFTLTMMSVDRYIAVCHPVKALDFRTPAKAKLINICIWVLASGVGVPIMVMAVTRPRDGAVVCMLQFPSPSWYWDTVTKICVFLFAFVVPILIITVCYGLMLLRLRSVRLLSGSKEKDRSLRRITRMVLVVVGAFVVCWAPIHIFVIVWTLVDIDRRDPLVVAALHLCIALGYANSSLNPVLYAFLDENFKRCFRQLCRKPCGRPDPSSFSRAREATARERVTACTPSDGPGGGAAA
UniProt P35372, whole entry: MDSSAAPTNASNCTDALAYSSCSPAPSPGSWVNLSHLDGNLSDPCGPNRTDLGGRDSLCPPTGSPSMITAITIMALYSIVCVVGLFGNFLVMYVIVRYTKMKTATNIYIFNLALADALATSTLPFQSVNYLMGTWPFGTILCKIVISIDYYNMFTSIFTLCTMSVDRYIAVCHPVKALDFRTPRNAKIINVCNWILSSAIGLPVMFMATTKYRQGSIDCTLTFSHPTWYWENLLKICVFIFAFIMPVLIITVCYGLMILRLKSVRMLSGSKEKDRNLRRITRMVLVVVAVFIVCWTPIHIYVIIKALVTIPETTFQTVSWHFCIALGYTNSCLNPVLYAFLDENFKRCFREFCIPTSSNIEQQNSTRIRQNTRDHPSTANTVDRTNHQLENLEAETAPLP
UniProt P41145: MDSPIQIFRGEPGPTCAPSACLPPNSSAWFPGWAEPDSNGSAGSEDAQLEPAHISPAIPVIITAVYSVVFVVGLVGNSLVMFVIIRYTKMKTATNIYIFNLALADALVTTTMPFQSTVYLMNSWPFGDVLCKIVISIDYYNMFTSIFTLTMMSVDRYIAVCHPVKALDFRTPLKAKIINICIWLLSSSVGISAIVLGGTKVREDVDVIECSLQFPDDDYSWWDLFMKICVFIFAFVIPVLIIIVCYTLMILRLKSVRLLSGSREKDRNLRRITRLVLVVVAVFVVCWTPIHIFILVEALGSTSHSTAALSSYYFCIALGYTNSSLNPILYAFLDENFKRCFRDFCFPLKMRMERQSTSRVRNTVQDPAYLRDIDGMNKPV

## Oc1ccc2c3c1O[C@H]1[C@H](O)CC[C@@]4(O)[C@@H](C2)N(CC2CC2)CC[C@]314
[1]
  Ki: 213 nM
Mu-type opioid receptor
  Ki: 2.12 nM
[2]
  Ki: 7.42 nM

— ChEMBL document CHEMBL1153596, “Design, synthesis, and characterization of 6beta-naltrexol analogs, and their selectivity for in vitro opioid receptor subtypes” (Bioorg Med Chem Lett, 2009)
